# System: NADPH
# Test: purified protein, by the assay type
# Conditions: other: pH 7.0 and 30° C.
substance,measurement,value
carbonyl reductase from Lactococcus lactis (LL-CR) (Lactococcus lactis subsp. lactis Il1403),Km,30 µM

# Reference: patent US20060240535A1, “Carbonyl reductase from lactococcus lactis” (GEORGIA TECH RESEARCH CORPORATION, priority 2004, published 2006)
